This note sets out measurements from ChEMBL document CHEMBL3046664, “Synthesis in vitro/in vivo evaluation and in silico physicochemical study of prodrug approach for brain targeting of alkylating agent” (Med Chem Res, 2013).

Data set [1] has as its system Brain. Put plainly: Half life in Rattus norvegicus (rat) brain homogenate assessed as conversion to 1-Propyl-3-{(bis(2-chloroethyl)amino)carbamoyl}pyridinium bromide at 6.25 x 10^-4 M by UV-spectrophotometric analysis. The settings on record: in vivo, 625 µM.
Data set [2] concerns Blood. The experiment in a line: Half life in 100% Homo sapiens (human) whole blood assessed as conversion to 1-Propyl-3-{(bis(2-chloroethyl)amino)carbamoyl}pyridinium bromide at 10 x 10^-4 M by UV-spectrophotometric analysis. The settings on record: 1000 µM.
A short description of data set [3]: Half life in silver nitrate solution assessed as conversion to 1-Propyl-3-{(bis(2-chloroethyl)amino)carbamoyl}pyridinium bromide at 5% after 2 min by UV-Visible spectrophotometric analysis.
Data set [4] relates to Brain. Put plainly: Half life in Rattus norvegicus (rat) brain homogenate assessed as conversion to 1-Ethyl-3-{(bis(2-chloroethyl)amino)carbamoyl}-pyridinium iodide at 6.25 x 10^-4 M by UV-spectrophotometric analysis. The settings on record: in vivo, 625 µM.
Data set [5] relates to Blood. Put plainly: Half life in 100% Rattus norvegicus (rat) whole blood assessed as conversion to 1-Ethyl-3-{(bis(2-chloroethyl)amino)carbamoyl}-pyridinium iodide at 10 x 10^-4 M by UV-spectrophotometric analysis. Particulars: 1000 µM.
A short description of data set [6]: Half life in silver nitrate solution assessed as conversion to 1-Ethyl-3-{(bis(2-chloroethyl)amino)carbamoyl}-pyridinium iodide at 5% after 2 min by UV-Visible spectrophotometric analysis.

With `CCCN1C=CCC(C(=O)N(CCCl)CCCl)=C1`, the t1/2 with Brain [1] came out at 17 min; in the data set with Blood [2], 21 min; in data set [3], 8 min.

Turning to `CCN1C=CCC(C(=O)N(CCCl)CCCl)=C1`, the t1/2 in the data set with Brain [4] was found to be 14.4 min; in the data set with Blood [5], 10.2 min; in data set [6], 6 min.
